According to patent publication US20060079453A1, “Hla binding peptides and their uses” (priority 2002, published 2006):

What was measured:
Test in all cases: biochemical
Assay type in all cases: binding
HLA-B*4403 = HLA-B*4403 (Homo sapiens, UniProt P01889, A223V/A65T/A93T/A95T/D201E/D98Y/E176V/E187L/E204Q/E69K/G107R/H137Y/K202T/L105A/L119I/N104T/N87E/Q56L/Q94N/R106L/R155S/R180L/S101N/S121R/S35A/S48T/T118I/V36M/W191S/Y140D/Y91S)
HLA-B*4402 = HLA-B*4402 (Homo sapiens, UniProt P01889, A223V/A65T/A93T/A95T/D201E/D98Y/E176V/E187L/E204Q/E69K/G107R/H137Y/K202T/L105A/L119I/N104T/N87E/Q56L/Q94N/R106L/R155S/R180D/S101N/S121R/S35A/S48T/T118I/V36M/W191S/Y140D/Y91S)
HLA-B*4002 = HLA-B*4002 (Homo sapiens, UniProt P01889, A65T/A93T/A95T/D138N/D201E/D98Y/E176V/E204Q/E69K/K202T/N87E/Q56L/Q94N/R180L/S48T/Y33H/Y91S)
HLA-B*4501 = HLA-B*4501 (Homo sapiens, UniProt P01889, A329T/A65T/A93T/A95T/C349S/D138N/D201E/D98Y/E176V/E187L/E204Q/E69K/H137Y/K202T/L119W/N87E/Q56L/Q94N/R155S/R180D/S121R/S35A/S48T/V127L/V306I/V36M/W191S/Y140L/Y33H/Y91S)
HLA-B*1801 = HLA-B*1801 (Homo sapiens, UniProt P01889, A329T/A93T/A95T/C349S/D201E/D54G/D98Y/E176V/E187T/E204Q/E69T/K202T/Q94N/R155S/R180L/S121R/V306I/Y140S/Y195H/Y33H/Y91S)
HLA-B*4001 = HLA-B*4001 (Homo sapiens, UniProt P01889, A65T/A93T/A95T/D138N/D98Y/E176V/E69K/N87E/Q56L/Q94N/R180L/S121R/S35A/S48T/T167S/V36M/W171L/Y33H/Y91S)

Structure (SMILES) | IC50 (HLA-B*4403) [nM] | IC50 (HLA-B*4402) [nM] | IC50 (HLA-B*4002) [nM] | IC50 (HLA-B*4501) [nM] | IC50 (HLA-B*1801) [nM] | IC50 (HLA-B*4001) [nM]
CSCC[C@H](NC(=O)[C@@H](NC(=O)[C@H](Cc1ccc(O)cc1)NC(=O)[C@H](C)NC(=O)[C@H](CCC(=O)O)NC(=O)[C@@H](N)CC(=O)O)C(C)C)C(=O)N[C@@H](C)C(=O)NCC(=O)N[C@H](C(=O)O)C(C)C | 138 | 8010 | 1240 | 161 | – | –
CC[C@H](C)[C@H](NC(=O)[C@H](C)NC(=O)[C@H](C)NC(=O)[C@H](CCC(N)=O)NC(=O)[C@H](Cc1ccccc1)NC(=O)[C@H](CCC(=O)O)NC(=O)[C@@H](N)CO)C(=O)N[C@@H](CO)C(=O)N[C@@H](CCCNC(=N)N)C(=O)N[C@@H](CCCCN)C(=O)N[C@@H](CCSC)C(=O)O | 1.2 | 88 | 107 | 161 | 7 | –
CC(C)C[C@H](NC(=O)[C@@H]1CCCN1C(=O)[C@@H]1CCCN1C(=O)[C@H](CCC(=O)O)NC(=O)[C@@H](N)C(C)C)C(=O)N[C@@H](CO)C(=O)N[C@@H](CCC(N)=O)C(=O)N[C@@H](CCC(=O)O)C(=O)N[C@H](C(=O)O)[C@@H](C)O | 236 | 3190 | – | – | – | 17100
CSCC[C@H](N)C(=O)N[C@@H](CCC(=O)O)C(=O)N[C@@H](CC(C)C)C(=O)N[C@@H](C)C(=O)N[C@@H](C)C(=O)N[C@@H](CC(C)C)C(=O)N[C@@H](CS)C(=O)N[C@@H](CCCNC(=N)N)C(=O)N[C@@H](Cc1c[nH]c2ccccc12)C(=O)NCC(=O)N[C@@H](CC(C)C)C(=O)O | 0.92 | 17 | 30 | – | 6.4 | 24
CSCC[C@H](NC(=O)[C@H](CC(=O)O)NC(=O)[C@H](CC(C)C)NC(=O)[C@H](Cc1c[nH]cn1)NC(=O)[C@@H](NC(=O)[C@H](CCC(=O)O)NC(=O)[C@@H]1CCCN1)[C@@H](C)O)C(=O)N[C@@H](CC(C)C)C(=O)N[C@@H](CCCNC(=N)N)C(=O)N[C@@H](Cc1c[nH]cn1)C(=O)N[C@@H](CC(C)C)C(=O)O | 70 | 11500 | – | 4330 | 1320 | 700
CC(C)C[C@H](NC(=O)CNC(=O)[C@H](CO)NC(=O)[C@H](CC(N)=O)NC(=O)[C@H](CCCCN)NC(=O)[C@H](CCC(=O)O)NC(=O)[C@@H](N)[C@@H](C)O)C(=O)N[C@@H](Cc1ccc(O)cc1)C(=O)O | 605 | 1870 | 7120 | 10200 | – | 9850
CC(C)C[C@H](NC(=O)[C@H](Cc1ccc(O)cc1)NC(=O)[C@H](CC(N)=O)NC(=O)[C@H](CCC(=O)O)NC(=O)[C@@H](N)CCC(N)=O)C(=O)N[C@@H](CCC(=O)O)C(=O)N[C@@H](Cc1ccc(O)cc1)C(=O)N[C@@H](CCCNC(=N)N)C(=O)N[C@@H](CCC(N)=O)C(=O)N[C@H](C(=O)O)C(C)C | 16 | 17 | 102 | 27 | – | 493
CC(C)C[C@H](NC(=O)[C@H](Cc1ccc(O)cc1)NC(=O)[C@H](CCC(=O)O)NC(=O)[C@@H]1CCCN1)C(=O)N[C@H](C(=O)N1CCC[C@H]1C(=O)N[C@@H](CCC(N)=O)C(=O)NCC(=O)NCC(=O)O)[C@@H](C)O | 284 | 6530 | 13900 | – | 1460 | –
CC(C)C[C@H](NC(=O)[C@H](C)NC(=O)[C@H](CCC(=O)O)NC(=O)[C@@H](N)CC(N)=O)C(=O)N[C@@H](CCC(=O)O)C(=O)N[C@@H](CC(C)C)C(=O)N[C@@H](CCCCN)C(=O)N[C@@H](CC(=O)O)C(=O)N[C@@H](C)C(=O)O | 1580 | 4270 | – | – | – | 3890
CSCC[C@H](NC(=O)[C@H](CCCNC(=N)N)NC(=O)[C@@H]1CCCN1C(=O)CNC(=O)[C@H](CCC(=O)O)NC(=O)[C@H](CCC(=O)O)NC(=O)[C@H](CCC(=O)O)NC(=O)[C@@H](N)CCC(N)=O)C(=O)N[C@@H](Cc1ccccc1)C(=O)O | 409 | 237 | 7750 | 2170 | – | –
CSCC[C@H](NC(=O)[C@H](CC(C)C)NC(=O)[C@H](CCC(=O)O)NC(=O)[C@@H](N)Cc1c[nH]c2ccccc12)C(=O)N[C@H](C(=O)N[C@@H](Cc1ccccc1)C(=O)NCC(=O)N[C@@H](C)C(=O)N[C@@H](CCCCN)C(=O)N1CCC[C@H]1C(=O)N[C@@H](Cc1ccc(O)cc1)C(=O)O)[C@@H](C)O | 75 | 24 | 778 | – | – | 509
CC[C@H](C)[C@H](N)C(=O)N[C@@H](CCC(=O)O)C(=O)NCC(=O)N[C@@H](CC(=O)O)C(=O)N[C@@H](CS)C(=O)N[C@@H](C)C(=O)N1CCC[C@H]1C(=O)N[C@@H](CCC(=O)O)C(=O)N[C@@H](CCC(=O)O)C(=O)N[C@@H](CCCCN)C(=O)N[C@H](C(=O)O)[C@@H](C)CC | 486 | 2630 | – | 183 | 844 | –
CC[C@H](C)[C@H](NC(=O)[C@H](CCCCN)NC(=O)[C@H](CCCCN)NC(=O)[C@H](CS)NC(=O)CNC(=O)[C@H](C)NC(=O)[C@H](Cc1ccccc1)NC(=O)[C@H](CCC(=O)O)NC(=O)[C@@H](N)CCC(N)=O)C(=O)N[C@@H](Cc1ccccc1)C(=O)O | 3.6 | 4 | 12 | – | 53 | 3690
CC(C)C[C@H](NC(=O)[C@H](Cc1ccc(O)cc1)NC(=O)[C@@H](NC(=O)[C@H](C)NC(=O)[C@H](CC(=O)O)NC(=O)[C@H](CCC(N)=O)NC(=O)[C@@H](NC(=O)[C@H](CCC(=O)O)NC(=O)[C@@H]1CCCN1C(=O)[C@H](CCC(=O)O)NC(=O)[C@@H](N)CS)[C@@H](C)O)[C@@H](C)O)C(=O)O | 807 | 398 | 3390 | – | 831 | 311
CC(C)C[C@H](NC(=O)[C@@H]1CCCN1C(=O)[C@H](CO)NC(=O)[C@H](CCCNC(=N)N)NC(=O)[C@@H]1CCCN1C(=O)[C@H](C)NC(=O)[C@H](CCC(=O)O)NC(=O)[C@H](CCC(=O)O)NC(=O)[C@H](CCC(=O)O)NC(=O)[C@@H](N)CO)C(=O)O | 8.4 | 37 | – | 84 | 151 | –
CC(C)C[C@H](NC(=O)[C@H](CCC(N)=O)NC(=O)[C@H](CC(C)C)NC(=O)[C@H](CCC(=O)O)NC(=O)[C@@H](N)CCCNC(=N)N)C(=O)N[C@@H](CCCNC(=N)N)C(=O)N[C@@H](CO)C(=O)N[C@@H](CC(C)C)C(=O)N[C@H](C(=O)O)[C@@H](C)O | 0.2 | 465 | 13 | – | 638 | –
CC[C@H](C)[C@H](NC(=O)[C@H](CCCCN)NC(=O)[C@H](CCCCN)NC(=O)[C@H](CS)NC(=O)CNC(=O)[C@H](C)NC(=O)[C@H](Cc1ccccc1)NC(=O)[C@H](CCC(=O)O)NC(=O)[C@@H](N)CCC(N)=O)C(=O)N[C@@H](Cc1ccccc1)C(=O)NCC(=O)O | 2.1 | 37 | 477 | 138 | – | –
CC[C@H](C)[C@H](NC(=O)[C@H](CCC(=O)O)NC(=O)[C@@H]1CCCN1)C(=O)N[C@@H](CCC(N)=O)C(=O)N[C@@H](CC(N)=O)C(=O)N[C@H](C(=O)N[C@H](C(=O)N[C@@H](Cc1ccc(O)cc1)C(=O)N[C@@H](CC(C)C)C(=O)O)[C@@H](C)O)[C@@H](C)O | 231 | 16800 | – | 1820 | 923 | 138
